Source: ChEMBL document CHEMBL3769367, “Orexin Receptor Antagonists: New Therapeutic Agents for the Treatment of Insomnia” (J Med Chem, 2016)

Experiment: GSH activity assessed as GSH adduct formation by measuring GSH/IS ratio

With `Cc1ccc(-n2nccn2)c(C(=O)N2CCN(c3nc4cc(Cl)ccc4o3)CC[C@H]2C)c1` [SUVOREXANT] the Ratio was 0.1.
